This passage reports MIC results from PMC8780785, “Bioactive Properties of a Novel Antibacterial Dye Obtained from Laccase-Mediated Oxidation of 8-Anilino-1-naphthalenesulfonic Acid” (Molecules, 2022).

One assay relates to S. aureus ATCC 25923. Kind of assay: MIC and MBC determination (CLSI protocol), S. aureus. In kind it is cell-based. The conditions noted are these: Staphylococcus aureus, ATCC25923, 24 h, read-out: MIC S. aureus. The procedure:
(§1) The stock solutions (10 mg/mL) of the tested substances were prepared in distilled water and afterwards diluted to the appropriate concentration in Mueller–Hinton Bullion. In each well of a 96-well plate, 300 µL of the mixture was inoculated with 10 µL of the bacterial culture (final density~10^2 cfu/mL). […] Then, 10 µL of the suspension from each well was transferred to a fresh sterile medium and incubated for another 24 h at 37 °C. The lack of turbidity indicated bactericidal activity of the investigated substances and the MBC value was thus determined.

In assay [1] the test system is S. epidermidis ATCC 14990. As to the kind of experiment: MIC and MBC determination (CLSI protocol), S. epidermidis. The class given is cell-based. The conditions noted are these: Staphylococcus epidermidis, ATCC14990, 24 h, read-out: MIC S. epidermidis. The procedure:
as §1

Converted amounts (≈) assume the structure as drawn.

`O=S(=O)(O)c1cccc2cccc(Nc3ccccc3)c12` [ANS, 8-anilino-1-naphthalenesulfonic acid]: the minimal inhibitory concentration (MIC) (usually the lowest concentration found to suppress growth) in the assay on S. aureus ATCC 25923 stood at 200 µg/mL (≈ 668 µM); in assay [1] it was 25 µg/mL (≈ 83.5 µM).
